Measured values as given in patent US20110230476A1 (published 2011).
Where two headings read alike, the source gives them in different places.

Protein sequences, listed by entry. Tags and fused reporters are not part of them. Lines headed by an entry give the natural chain unless they say otherwise; changes in a name come on top.
UniProt P42338: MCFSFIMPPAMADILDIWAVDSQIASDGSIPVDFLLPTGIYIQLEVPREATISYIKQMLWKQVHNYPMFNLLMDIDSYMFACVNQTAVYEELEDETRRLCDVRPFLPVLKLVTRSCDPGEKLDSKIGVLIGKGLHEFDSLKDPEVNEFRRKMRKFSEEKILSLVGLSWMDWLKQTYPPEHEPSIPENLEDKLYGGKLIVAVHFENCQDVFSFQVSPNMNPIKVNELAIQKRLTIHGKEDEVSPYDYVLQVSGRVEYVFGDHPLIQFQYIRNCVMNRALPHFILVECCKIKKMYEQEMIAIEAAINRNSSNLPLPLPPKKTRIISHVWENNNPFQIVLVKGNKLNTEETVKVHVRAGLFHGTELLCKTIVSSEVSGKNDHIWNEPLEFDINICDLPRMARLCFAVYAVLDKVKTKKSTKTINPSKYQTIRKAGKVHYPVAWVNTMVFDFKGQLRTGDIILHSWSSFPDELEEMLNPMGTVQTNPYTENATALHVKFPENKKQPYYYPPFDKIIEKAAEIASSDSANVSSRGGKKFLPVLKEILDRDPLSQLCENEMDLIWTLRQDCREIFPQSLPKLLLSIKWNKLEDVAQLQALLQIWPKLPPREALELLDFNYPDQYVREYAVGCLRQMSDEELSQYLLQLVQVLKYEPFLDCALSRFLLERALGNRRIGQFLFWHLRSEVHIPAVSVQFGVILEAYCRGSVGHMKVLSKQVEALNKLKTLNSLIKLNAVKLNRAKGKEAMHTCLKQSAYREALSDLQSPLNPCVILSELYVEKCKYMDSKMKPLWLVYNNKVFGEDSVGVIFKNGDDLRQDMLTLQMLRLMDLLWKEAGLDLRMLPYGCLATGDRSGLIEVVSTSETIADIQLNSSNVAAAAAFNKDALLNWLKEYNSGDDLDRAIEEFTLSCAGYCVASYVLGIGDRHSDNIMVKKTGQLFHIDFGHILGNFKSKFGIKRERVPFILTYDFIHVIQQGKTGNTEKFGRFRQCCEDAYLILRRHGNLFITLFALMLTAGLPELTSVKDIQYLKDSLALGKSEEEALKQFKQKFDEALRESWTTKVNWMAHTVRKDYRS

Legend:
PI3Kβ (p110β/p85α) [1] = target: T1, PI3Kβ (p110β/p85α) (Homo sapiens, UniProt P42338); test: HTRF assay, potency against active PI3Kβ; type: biochemical
PI3Kβ (p110β/p85α) [2] = target: T1, PI3Kβ (p110β/p85α); conditions: read-out: published IC50; p110β/p85α enzyme; cited from earlier work

- IC50 (PI3Kβ (p110β/p85α) [1]): > 1000 nM
SMILES: O=c1cc(N2CCOCC2)oc2c(-c3ccccc3)cccc12 [LY294002, reference compound]
- IC50 (PI3Kβ (p110β/p85α) [2]): > 1000 nM
